The text below walks through data of patent US20220298225A1, “METHODS AND COMPOSITIONS FOR TREATING CANCER WITH COLLAGEN BINDING DRUG CARRIERS” (The University of Chicago, priority 2019, published 2022).

Data set [1] is described as follows: B. The protocol:
Table printed on a drawing sheet, FIG. 2A-D
(A) Aldoxorubicin, Dox-SA or Dox-CBD-SA (5 mg/kg for Dox basis) were administered to tumor-free FVB mice via tail vein injection (i.v.). Blood plasma was collected at indicated time points. Plasma concentration of Dox was measured by fluorescence (mean±SEM, n=4 for aldoxorubicin, n=5 for Dox-SA and Dox-CBD-SA). (B) Plasma half-lives of Dox were calculated using two-phase exponential decay: MFI (t)=Ae^−αt+Be^−βt. t½, α, fast clearance half-life; t½, β, slow clearance half-life. (mean±SEM. n=4 for aldoxorubicin, n=5 for Dox-SA and Dox-CBD-SA). (C) MMTV-PyMT tumor bearing mice were treated with aldoxorubicin, Dox-SA, or Dox-CBD-SA (4.16 mg/kg for Dox basis). At the indicated time points, tumors were harvested, and the amount of Dox within the tumors was quantified (mean±SEM. n=5 for 2 h, n=7 for 24 h per group). (D) 100 μg of DyLight 488-labeled SA or equimolar amounts of DyLight 488-labeled CBD-SA were injected i.v. to MMTV-PyMT tumor bearing mice. 1 h after injection, tumors were harvested and fluorescence was analyzed by confocal microscopy. Tissues were also stained with DAPI and anti-CD31 antibody. Scale bar=100 μm. Representative images of 3 tumors, each. Two experimental replicates. […]
First reader's note: Panel B of FIG. 2A-D; each result cell holds the value together with its ± error.

Data set [2] is described as follows: Plasma pharmacokinetics of Dox conjugates in tumor-free FVB mice. It is filed as in vivo, mouse. The note with it: 5 mg/kg Dox basis i.v. The protocol: A previous report about polypeptide-Dox nanoparticles was referred (40) . To measure pharmacokinetics of Dox, 5 mg/kg Dox equivalent of aldoxorubicin, Dox-SA, or Dox-CBD-SA was injected intravenously into female FVB mice. Blood samples were collected in EDTA coated tubes at 5 min, 30 min, 1 h, 4 h, 12 h, 25 h, 50 h, and 75 h after injection. Blood samples were stored at 4° C. until the end of sample collection. The samples were centrifuged (2000×g, 5 min) and plasma was collected. Plasma samples diluted in acidified isopropanol (75 mM HCl, 10% water, 90% isopropanol) were loaded onto a 96 well black plate (100 μL/well). Fluorescence was measured as described above. Plasma samples were also collected from mice which received no injections, diluted in acidified isopropanol, and measured to create the standard curve of background fluorescence. Exponential two-phase decay (Y=Ae^−αt+Be^−αt) fitting was used to calculate the plasma half-life. Fast clearance half-life: t1/2, □, slow clearance half-life: t1/2, α. Data was analyzed using Prism software (v7, GraphPad).

The test system of data set [3] is MMTV-PyMT breast cancer. Briefly: Tumor-infiltrating lymphocytes by flow cytometry in MMTV-PyMT model. It counts as in vivo, mouse. The settings on record: 7 days after treatment, 5 mg/kg. The method, then: MMTV-PyMT model was prepared as described above. Mice were treated on day 7 with aldoxorubicin, Dox-SA or Dox-CBD-SA (5 mg/kg). Mice were sacrificed on day 14. Cell suspensions were obtained from each tumor as described previously (9). Tumors were harvested and digested in Dulbecco's Modified Eagle Medium (DMEM) supplemented with 2% FBS, 2 mg/mL collagenase D and 40 μg/mL DNase I (Roche) for 30 min at 37° C. Single-cell suspensions were obtained by gently disrupting the organs through a 70 μm cell strainer. Red blood cells were lysed with ACK lysing buffer (Quality Biological). Fixable live/dead cell discrimination was performed using Fixable Viability Dye eFluor 455 (eBioscience) according to the manufacturer's instructions. Following a washing step, cells were stained with specific antibodies for 20 min on ice prior to fixation. Following antibodies were used to stain the cells: CD3 (145-2C11, BD Biosciences), CD4 (RM4-5, BD Biosciences), CD8α (53-6.7, BD Biosciences), CD45 (30-F11, BD Biosciences), and NK1.1 (PK136, BD Biosciences). All flow cytometric analyses were done using a Fortessa flow cytometer (BD Biosciences) and analyzed using FlowJo software (Tree Star).
In general terms: A flow cytometer gives signals particle by particle.

The test system of data set [4] is MMTV-PyMT breast cancer. Briefly: MMTV-PyMT murine breast cancer model, anti-tumor efficacy. It counts as in vivo, mouse. The note with it: single i.v. injection 5 mg/kg Dox basis on day 7. The protocol: The MMTV-PyMT murine breast cancer model was prepared as described previously (9). A total of 5×10^5 MMTV-PyMT cells suspended in 50 μL of PBS were injected subcutaneously into the mammary gland on the right side of each mouse. Mice were treated with aldoxorubicin, Dox-SA or Dox-CBD-SA on day 7 (5 mg/kg) via tail vein injection. Tumors were measured with a digital caliper at indicated time points, and volumes were calculated as ellipsoids, where V=4/3×3.14×depth/2×width/2×height/2. Mice were sacrificed when tumor volume had reached over 500 mm^3 or when active ulceration was observed. For the therapeutic experiment, FVB mice originated from Charles River origin were used. For the tumor infiltrating lymphocytes (TILs) analysis, FVB mice originated from both Jackson Laboratory and Charles River were used. The proportion of mice from different providers was equalized among all groups.

For data set [5], the system named is MMTV-PyMT cells. Description: Cellular uptake of Dox-conjugates (confocal microscopy). It is filed as cell-based, mouse. The note with it: after 1 h of incubation, 50 μM equivalent of Dox. The method, then:
To evaluate the cellular uptake of Dox-conjugates, MMTV-PyMT cells were seeded in 96 well high content imaging plate (Corning) at 5000 cells/well and incubated overnight. Cells were washed with PBS, and treated with free Dox, Dox-SA, or Dox-CBD-SA dissolved in DMEM (110 mg/L of sodium pyruvate, 10% heat inactivated FBS, 1% penicillin/streptomycin, Phenol red (-)) at the concentration of 50 μM equivalent of Dox. After the incubation, cells were washed twice, treated with 75 nM of Lysotracker Deep Red and further incubated 30 min at 37° C. Cells were washed twice and observed by IX83 microscope (Olympus) with ×60 magnification. Images were processed using ImageJ software (NIH). Scale bar; 20 μm.

As to “Dox-SA: unmodified mouse SA thiolated with Traut's reagent and conjugated with aldoxorubicin in the same way [listing 1 of 2 here]”, in data set [1], the “t½, α” value is 3 ± 0.468 min and the “t½, β” value was determined as 8.4 ± 1.7 h.

In the case of “Dox-SA: unmodified mouse SA thiolated with Traut's reagent and conjugated with aldoxorubicin in the same way [listing 2 of 2 here]”, in data set [2], the “blood plasma half-life of Dox” value is recorded as “shorter than the reported half-life of naïve mouse SA”. Moreover, in data set [3], the “number of CD4+ T cells within the tumor per unit tumor mass” value was “not”, the “number of CD8+ T cells within the tumor per unit tumor mass” value is “not” and the “number of NK cells within the tumor per unit tumor mass” value is given as “not”. In data set [4], the tumor growth result is “significantly suppressed tumor growth”. Moreover, the “intracellular localization of Dox fluorescence” value in data set [5] is on record as “punctuate fluorescence was observed”.
